pKi: −log10 of the molar value.
What was measured:
[1] = biological target: human CYP11B2 (Homo sapiens, UniProt P19099); assay: H295R steroidogenesis assay, inhibition of aldosterone synthase; conditions: read-out: CYP11B2 Ki; NCI-H295R cells, 10 µM deoxycorticosterone, 48 h, aldosterone by LC-MS; Ki = IC50/(1 + [S]/Km)
Protocol: (§1) The H295R steroidogenesis assay system was used in the present invention for testing the enzyme activities of human CYP11B1, human CYP11B2, etc. The in vitro H295R steroidogenesis assay system utilizes a human adrenocortical carcinoma cell line (NCI-H295R cells) as a Tier 2 "in vitro assay that provides mechanistic data" for screening and prioritization purposes. The development and standardization of this method were performed in a multi-step process for screening chemical effects on steroidogenesis, and the H295R assay method has been optimized and validated according to the OECD Test Guideline (Test Guideline No. 456 H295R Steroidogenesis Assay).
(§2) NCI-H295R cells were purchased from ATCC. After initiating culture from the original ATCC batch, NCI-H295R cells were cultured for five passages (i.e., undergo four rounds of cell divisions), and then the cells at passage five were cryopreserved and stored in liquid nitrogen.
(§3) H295R cells were cultured in a cell culture incubator at 37°C and 5% CO2, and the medium was replaced 2-3 times per week. Cells were passaged when they reached approximately 85-90% confluency. The medium was aspirated, and the cells were washed three times with DPBS (Ca^2+ and Mg^2+ -free), and then trypsin was added to digest for 1-3 min. The digestion was terminated by adding 3 mL of culture medium. The cells were then dislodged by pipetting, and any remaining cells were rinsed off with 1 mL of medium. The cell suspension was pooled and transferred to a 15 mL centrifuge tube. After centrifuging at room temperature and 800 rpm for 5 min, the supernatant was discarded, the pellet was resuspended in 3 mL of medium, and the cell suspension was counted. The edge wells of a 96-well plate are left empty, and the remaining wells are seeded with 50,000 cells per well in 100 µL of 10% FBS DMEM/F12 (1:1) basal medium..After overnight recovery, the medium was replaced with basal medium containing 10 µM Forskolin (150 µL per well), and the cells were incubated for 48 h. After 48 h, the medium was replaced with basal medium containing 10 µM deoxycorticosterone. The compound was dissolved in DMSO to prepare a 100 mM stock solution. Starting from 100 mM, the compounds are subjected to 3-fold serial dilutions in DMSO, resulting in 10 concentration points. These 10 concentration points was then diluted 10-fold with blank DMEM:F12 (1:1) medium, resulting in a starting concentration of 10 mM. An aliquot of 1.5 µL of each compound concentration was added to the cells, achieving a final DMSO concentration of 0.1% and a starting compound concentration of 100 µM. After incubation for 48 h, 40 µL of cell supernatant was collected and analyzed for the levels of aldosterone and cortisol by LC-MS.
(§4) The inhibition rate was calculated using the following formula: [formula]
(§5) Using the logarithm of the compound concentration as the x-axis and the inhibition rate as the y-axis. Nonlinear regression curve fitting was performed using Graphpad 9.0 to calculate the IC50 value (Y=Bottom+(Top - Bottom)/(1+ 10^((LogIC50 - X)×HillSlope))), Ki = IC50/(1 + [S]/Km), and the test results are shown in Table 1. Unless otherwise specified, competitive inhibition is assumed for all proteases. Selectivity = CYP11B1 Ki (nM)/CYP11B2 Ki (nM); wherein, A represents a selectivity value between 0 and 50, B represents a selectivity value between 51 and 100, C represents a selectivity value between 101 and 150, and D represents a selectivity value above 151. Table 1: Inhibitory effect of compounds on CYP11B2

Amino acid sequences for entries named in this document (tags omitted). Residues count along the entry.
UniProt P19099, 25-503 limits assumed: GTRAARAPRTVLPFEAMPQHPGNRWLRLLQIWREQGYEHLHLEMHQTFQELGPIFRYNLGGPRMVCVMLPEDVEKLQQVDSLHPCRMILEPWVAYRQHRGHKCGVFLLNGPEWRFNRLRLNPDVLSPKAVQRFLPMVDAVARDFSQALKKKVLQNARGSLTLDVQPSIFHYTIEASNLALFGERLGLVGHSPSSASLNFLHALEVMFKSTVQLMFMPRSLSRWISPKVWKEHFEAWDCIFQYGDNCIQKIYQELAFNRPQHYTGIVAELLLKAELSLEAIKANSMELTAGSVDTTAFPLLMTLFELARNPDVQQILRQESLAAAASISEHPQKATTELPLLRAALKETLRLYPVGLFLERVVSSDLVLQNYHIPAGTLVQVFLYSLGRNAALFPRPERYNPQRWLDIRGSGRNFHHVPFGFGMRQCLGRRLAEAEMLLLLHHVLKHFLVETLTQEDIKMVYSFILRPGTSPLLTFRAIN
UniProt P15538, 25-503 limits assumed: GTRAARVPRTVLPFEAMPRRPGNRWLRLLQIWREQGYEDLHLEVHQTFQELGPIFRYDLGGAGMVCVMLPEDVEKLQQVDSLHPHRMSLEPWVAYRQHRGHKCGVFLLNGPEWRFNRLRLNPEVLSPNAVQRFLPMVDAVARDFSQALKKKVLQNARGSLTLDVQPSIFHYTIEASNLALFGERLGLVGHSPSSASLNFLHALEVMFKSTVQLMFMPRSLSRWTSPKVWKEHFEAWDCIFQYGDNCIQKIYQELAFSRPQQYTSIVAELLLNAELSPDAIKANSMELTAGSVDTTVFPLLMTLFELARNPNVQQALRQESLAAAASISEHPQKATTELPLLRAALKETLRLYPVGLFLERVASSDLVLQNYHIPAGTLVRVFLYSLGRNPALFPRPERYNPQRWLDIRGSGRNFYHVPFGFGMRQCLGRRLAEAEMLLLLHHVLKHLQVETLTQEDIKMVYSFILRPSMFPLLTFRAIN

[2] = biological target: human CYP11B1 (Homo sapiens, UniProt P15538); assay: H295R steroidogenesis assay, selectivity CYP11B1 versus CYP11B2; conditions: Selectivity = CYP11B1 Ki (nM)/CYP11B2 Ki (nM); NCI-H295R cells
Protocol: as §1, §2, §3, §4, §5

[3] = Pharmacokinetic study in cynomolgus monkeys; conditions: Cynomolgus monkey, ig
Protocol: • Cynomolgus monkeys: male, 180-250g, purchased from Guangxi Grandforest Scientific Primate Company, Ltd. • Reagents: DMSO (dimethyl sulfoxide), PEG400, saline, heparin, acetonitrile, formic acid, propranolol (internal standard) are all commercially available. • Instrument: AB SCIEX 7500.
The compound was weighed and dissolved in a DMSO-PEG-400-saline (5:60:35, v/v/v) system. Following intragastric administration to cynomolgus monkeys, 200 µL of venous blood was collected into EDTA-K2 anticoagulant tubes at 30 min, 60 min, 90 min, 2 h, 3 h, 5 h, 8 h, and 24 h. The blood samples were centrifuged at 12,000 rpm for 2 min, and the plasma was collected and stored at -80°C for subsequent analysis. An appropriate amount of the test compound was accurately weighed and dissolved in DMSO to a concentration of 2 mg/mL as a stock solution. Appropriate volumes of the compound stock solution were accurately pipetted and diluted with acetonitrile to prepare a series of standard solutions. A series of standard solutions were prepared at concentrations equivalent to plasma concentrations of 0.3, 1, 3, 10, 30, 100, 300, 1000, and 3000 ng/mL by accurately pipetting 10 µL of each standard solution and adding it to 90 µL of blank plasma, followed by vortexing to mix. Quality control samples were prepared at plasma concentrations of 2.4, 120, and 2400 ng/mL. Duplicate samples were analyzed for each concentration , and the standard curve was established. Subsequently, 30 µL aliquot of plasma was taken, and 150 µL of acetonitrile solution containing the internal standard propranolol (50 ng/mL) was added. After vortexing to mix, 100 µL of purified water was added, and the mixture was vortexed again to mix. It was then centrifuged at 4000 rpm for 5 minutes, and the supernatant was collected for LC-MS analysis. The LC-MS detection conditions were as follows: Chromatographic column: YMC Triart C18, 50×3.0mm, 2.1µm. Mobile phase: gradient elution with a mixture of water (containing 0.1% formic acid) and acetonitrile as described in the table below:
After the plasma concentration was determined by LC-MS, the pharmacokinetic parameters were calculated using WinNonlin 6.1 software with a non-compartmental model, and the results are shown in Table 4. Table 4 Pharmacokinetic results of the compounds of the present invention in Cynomolgus monkey

In the case of `CCC(=O)N[C@@H]1CCCc2c(-c3ccc4c(C#N)nccc4c3)cncc21`, the pKi [1] was over 7.30, the Selectivity [2] was “B (B represents a selectivity value between 51 and 100)” and the AUClast ([3]; 0.05 mg/kg) was 292 ng·h/mL. It also gave a Cmax ([3]; 0.05 mg/kg) of 33.8 ng/mL, a T1/2 ([3]; 0.05 mg/kg) of 6.39 h and an AUClast ([3]; 20 mg/kg) of 128500 ng·h/mL. It also gave a Cmax ([3]; 20 mg/kg) of 15000 ng/mL and a T1/2 ([3]; 20 mg/kg) of 5.63 h.
